According to patent publication US9676780B2, “Piperazine-substituted [1,2,4]triazolo[1,5-C]quinazolin-5-amine compounds with A2A antagonist properties” (MERCK SHARP & DOHME CORP., priority 2012, dated 2017):

The compounds below were run against human A2a receptor (Homo sapiens, UniProt P29274) (assay: A2a receptor competition binding assay (Scintillation Proximity, tritiated radioligand)). Conditions: read-out: A2a EC50; membranes from HEK293 cells expressing the human A2a receptor; 0.5 nM tritiated ligand; SPA beads; one hour at room temperature.

| EC50 | Compound |
| --- | --- |
| 0.0184 µM | COc1cccc2c1nc(N)n1nc(CN3CCN(c4cncc(F)c4)C[C@H]3C)nc21 |
| 0.0244 µM | COc1cccc2c1nc(N)n1nc(CCCN3CCN(c4ccc(F)cc4)C[C@H]3C)nc21 |
| 0.00825 µM | COc1cccc2c1nc(N)n1nc(CN3CCN(c4ccc(F)cc4)[C@H](C)C3)nc21 |
| 0.0324 µM | COc1cccc2c1nc(N)n1nc(CN3C[C@@H](C)N(c4ccc(F)cc4)[C@@H](C)C3)nc21 |
